Hits are enriched below; roughly 2.3% of the tested compounds scored in any of these assays.
MC4R antagonist = human MC4R antagonism in cAMP assay. MC4R-expressing cells, MTII-stimulated cAMP, LANCE TR-FRET. AID 540295. inhibition, % at 6.5 µM. P32245. 0.48% of 360,000 active;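 active = inhibition above its plate's cutoff, the mean of tested wells on that plate plus 3 SD, cut at about 29% in these data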;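 also: 0% = Melanotan II alone and 100% = Melanotan II plus saturating MCL0020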
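Material: U2OS-MC4R stable cell line | Reagent: Melanotan II challenge after compound preincubation | Doses: One concentration, 6.5 µM nominal | Incubation: 30-min compound preincubation, 1-h Melanotan II challenge, 1-h detection, room temperature | Signal: TR-FRET cAMP assay | Replicates: One well per compound, no replicates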
ARFGAP1 inh = inhibitors of rat ARFGAP1 | Q62848 | Arfgap1-stimulated ARF1 GTP hydrolysis, GDP FP detection | inhibition, % at 16.5 µM | 0.26% of 360,000 active;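 active = inhibition above a per-plate limit, mean inhibition of low control wells plus 3 SD, cut at about 25% in these data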;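 also: 0% = DMSO wells with enzyme and 100% = wells lacking Arfgap1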
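Replicates: Single well per compound | Assay system: Truncated rat Arfgap1 GAP domain | Control set: No-Arfgap1 wells (100%) versus DMSO full-reaction wells (0%) | Times: Enzyme reaction 120 min at 25 °C after 20 min preincubation | Reagent: Human ARF1(Δ1-17)-GTP substrate | Measured by: Tracer-displacement fluorescence polarization with EDTA stop, 620/688 nm | Measure: Percent inhibition of Arfgap1-stimulated GTP hydrolysis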
NRP1-CendR mod = modulators of CendR peptide binding to human neuropilin-1. 0.85% of 360,000 active. AID 602438. inhibition, % at 25 µM. FAM-RPARPAR peptide binding to NRP-1, fluorescence polarization. O14786;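 active = inhibition or corrected inhibition above about 18%, plus a signal ratio from 0.5 to 1.5, limit read from the data, passing the limit was not always enough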
MC4R ag barr = activates human MC4R beta-arrestin recruitment | 0.98% of 360,000 active | AID 540308 | activation, % at 8.9 µM | U2OS MC4R beta-arrestin complementation, luminescence; percent of melanotan II response, DMSO zero;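 active = activation above a per-plate cutoff, the mean activation of sample wells on that plate plus 3 SD, cut at about 8% in these data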
ASAP1 inh = ASAP1 ArfGAP inhibition; inhibition, % at 16.5 µM; ASAP1-stimulated ARF1 GTP hydrolysis, GDP FP detection; 0.19% of 360,000 active; AID 624377; Q9ULH1; in the data active = inhibition above about 25%;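 also: 0% = vehicle with enzyme and substrate and 100% = no enzyme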
Yeast UUG start = alters start codon recognition fidelity in yeast | S. cerevisiae UUG-firefly luciferase reporter, luminescence/redox ratio | activity score, % at 18.7 µM | hit rate 0.13% among 350,000 | AID 602363;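 active means replicate mean at a twofold rise or more, about +100% in these data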;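 further: firefly luciferase made from a UUG start codon reports start codon fidelity; reporter light over untreated wells divided by growth signal over untreated wells; some hits fall short of that in this replicate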
ASAP1 GAP conf = ASAP1 inhibition confirmed. shares compounds with ASAP1 inh. inhibition, % at 16.5 µM. AID 624431. 37% of 620 active. ASAP1-stimulated Arf1 GTPase, GDP fluorescence polarization;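 active = mean inhibition over triplicates exceeds the hit threshold derived for the earlier primary screening run, cut at about 25% in these data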
The depositor's hits bear a star.

For COc1cccc(-n2nnc3c(=O)n(Cc4ccc(Br)cc4)cnc32)c1 the results were MC4R antagonist 9, ARFGAP1 inh -4, NRP1-CendR mod -9, MC4R ag barr 0, ASAP1 inh 28*, Yeast UUG start -21 and ASAP1 GAP conf 35*.
For O=S(=O)(N[C@H]1CC[C@H](CCn2cc(-c3cccnc3)nn2)O[C@@H]1CO)c1ccc(F)cc1 the results were Yeast UUG start -12.
Screening Cc1ccc(C(=O)N2CCCC2)cc1Br returned MC4R antagonist 7, ARFGAP1 inh 6, NRP1-CendR mod 3, MC4R ag barr 3, ASAP1 inh 26*, Yeast UUG start 5 and ASAP1 GAP conf 0.
Cc1ccc(Cl)cc1Nc1nc(-c2sc(NC(=O)C(C)(C)C)nc2C)cs1 was read as MC4R antagonist 2, ARFGAP1 inh 1, NRP1-CendR mod -35, MC4R ag barr 0, ASAP1 inh 25*, Yeast UUG start -10 and ASAP1 GAP conf 10.
COc1ccccc1Nc1nc(-c2sc(NC(=O)C(C)(C)C)nc2C)cs1 was read as MC4R antagonist -4, ARFGAP1 inh 14, NRP1-CendR mod -37, MC4R ag barr -1, ASAP1 inh -14 and Yeast UUG start -12.
COc1cc(N)c2ncccc2c1Br was read as MC4R antagonist -6, ARFGAP1 inh 15, NRP1-CendR mod 12, MC4R ag barr -1, ASAP1 inh 28*, Yeast UUG start -25 and ASAP1 GAP conf 11.
For Cc1nc2ccccc2nc1N1CCOCC1 the results were MC4R antagonist -5, ARFGAP1 inh -12, NRP1-CendR mod 8, MC4R ag barr -3, ASAP1 inh -5 and Yeast UUG start -1.
Cc1nc2ccccc2nc1N1CCCC1 was read as MC4R antagonist -2, ARFGAP1 inh 6, NRP1-CendR mod -7, MC4R ag barr -3, ASAP1 inh 31*, Yeast UUG start -21 and ASAP1 GAP conf 3.
Screening COc1ccc(N/N=C(\C#N)C(=N)SCc2ccccc2)cc1 returned MC4R antagonist -15, ARFGAP1 inh 5, NRP1-CendR mod 2, MC4R ag barr -1, ASAP1 inh 26* and ASAP1 GAP conf 1.
Screening CN1CCN(C(=O)CCCN2C(=O)/C(=C/c3ccccc3)SC2=S)CC1 returned MC4R antagonist -6, ARFGAP1 inh 9, NRP1-CendR mod 6, MC4R ag barr 0, ASAP1 inh -14 and Yeast UUG start -15.
Screening O=C(O)CCCN1C(=O)/C(=C\C(Cl)=C\c2ccccc2)SC1=S returned MC4R antagonist 1, ARFGAP1 inh 0, NRP1-CendR mod -36, MC4R ag barr 2, ASAP1 inh 33*, Yeast UUG start -18 and ASAP1 GAP conf 61*.
N/C(=N\OC(=O)c1cccc2ccccc12)c1cccc([N+](=O)[O-])c1 was read as MC4R antagonist -1, ARFGAP1 inh 18, NRP1-CendR mod 0, MC4R ag barr 2, ASAP1 inh 28*, Yeast UUG start -13 and ASAP1 GAP conf 57*.
Screening O=C(c1cccnc1)N1CCCCN2[C@H](C1)[C@@H](c1ccc(C#Cc3ccccn3)cc1)[C@@H]2CO returned Yeast UUG start 1.
For CC(C)n1c(-c2ccc(C(C)(C)C)cc2)n[nH]c1=S the results were MC4R antagonist 3, ARFGAP1 inh 13, NRP1-CendR mod 2, MC4R ag barr 4, ASAP1 inh 26*, Yeast UUG start -25 and ASAP1 GAP conf 6.
Screening Cc1ccccc1NC1=C/C(=N\S(=O)(=O)c2cccs2)c2ccccc2C1=O returned MC4R antagonist -16, ARFGAP1 inh 18, NRP1-CendR mod 4, MC4R ag barr -1, ASAP1 inh 25*, Yeast UUG start -16 and ASAP1 GAP conf 6.

Three entries picked at random from the list so far, as already listed:
For COc1cccc(-n2nnc3c(=O)n(Cc4ccc(Br)cc4)cnc32)c1 the results were MC4R antagonist 9, ARFGAP1 inh -4, NRP1-CendR mod -9, MC4R ag barr 0, ASAP1 inh 28*, Yeast UUG start -21 and ASAP1 GAP conf 35*.
N/C(=N\OC(=O)c1cccc2ccccc12)c1cccc([N+](=O)[O-])c1 was read as MC4R antagonist -1, ARFGAP1 inh 18, NRP1-CendR mod 0, MC4R ag barr 2, ASAP1 inh 28*, Yeast UUG start -13 and ASAP1 GAP conf 57*.
COc1cc(N)c2ncccc2c1Br was read as MC4R antagonist -6, ARFGAP1 inh 15, NRP1-CendR mod 12, MC4R ag barr -1, ASAP1 inh 28*, Yeast UUG start -25 and ASAP1 GAP conf 11.

(cont.)
For C[C@@H]1CCCCO[C@H](CN(C)C(=O)Nc2ccccc2)[C@@H](C)CN([C@H](C)CO)C(=O)c2cc(NS(=O)(=O)c3ccccc3)ccc2O1 the results were Yeast UUG start -3.
Screening COc1ccc(Nc2ncnc3sc(-c4ccccc4)cc23)cc1OC returned MC4R antagonist 7, ARFGAP1 inh 3, NRP1-CendR mod -4, MC4R ag barr 7, ASAP1 inh 26*, Yeast UUG start -9 and ASAP1 GAP conf 28*.
Screening COc1ccc(S(=O)(=O)N(C)C[C@@H]2Oc3ccc(NC(=O)Cn4cnnn4)cc3CC(=O)N([C@H](C)CO)C[C@H]2C)cc1 returned Yeast UUG start 9.
`CCc1cccc2c(C(=O)CN3C(=O)NC4(CCc5ccccc54)C3=O)c[nH]c12` (stereo unspecified) gave MC4R antagonist 0, ARFGAP1 inh 0, NRP1-CendR mod 5, MC4R ag barr -2, ASAP1 inh -3 and Yeast UUG start -7.
For CCc1cccc2c(C(=O)CN3C(=O)NC(C)(c4cccc5ccccc45)C3=O)c[nH]c12 (stereo unspecified) the results were MC4R antagonist 9, ARFGAP1 inh 14, NRP1-CendR mod -20, MC4R ag barr -3, ASAP1 inh 32* and ASAP1 GAP conf 28*.
Screening Nc1n[nH]c(N)c1N=Nc1ccccc1F returned MC4R antagonist -16, ARFGAP1 inh 10, NRP1-CendR mod -4, MC4R ag barr -1, ASAP1 inh 0 and Yeast UUG start -28.
`Nc1n[nH]c(N)c1N=Nc1ccc(Cl)cc1Cl` gave MC4R antagonist -12, ARFGAP1 inh 6, NRP1-CendR mod 1, MC4R ag barr 0, ASAP1 inh 29* and ASAP1 GAP conf 16.
`COCC#Cc1ccc2c(c1)O[C@H](CN(C)C(=O)NC(C)C)[C@@H](C)CN([C@@H](C)CO)S2(=O)=O` gave Yeast UUG start 5.
`CCCC(=O)Nc1ccc2c(c1)C(=O)N(C)[C@@H]1CC[C@H](CC(=O)NCCc3ccncc3)O[C@H]1CO2` gave Yeast UUG start -9.
Screening Cc1nc(NCCc2ccc(S(N)(=O)=O)cc2)c2c(C)c(C)sc2n1 returned MC4R antagonist -1, ARFGAP1 inh 14, NRP1-CendR mod -5, MC4R ag barr 0, ASAP1 inh 25*, Yeast UUG start -4 and ASAP1 GAP conf 3.
Screening CO[C@@H]1CN(C)C(=O)c2ccc(NC(=O)Cc3ccccc3)cc2OC[C@@H](C)NC[C@@H]1C returned Yeast UUG start -7.
Screening CO[C@H]1CN(C)C(=O)c2cc(NC(=O)c3ccc(F)cc3)ccc2OC[C@@H](C)N(C(=O)c2ccc(F)cc2)C[C@@H]1C returned Yeast UUG start 10.

Screening data (PubChem BioAssay)
